# Measurements: US20020040062A1, “Protein kinase C activators and their use in decreasing expression of cell antigens” (The Trustees of Columbia University, priority 1993, published 2002)
# What was measured:
# Assay type in all cases: cell-based, human
# HLA Class II antigens = experiment: FACS analysis of HLA Class II antigen surface expression in T47D cells
# From the text: IgG1 murine monoclonal antibody Cu18 and Cu46 recognize two different epitopes of a highly restricted breast carcinoma associated glycoprotein of Mr 225,000 to 250,000 (BCA 225). This TAA is expressed intracytoplasmically and on the membrane of 94% of breast tumors tested and in the T47D human breast carcinoma cell line. BCA 225 is shed into the culture medium by T47D cells and into the sera of breast cancer patients. IgG2a monoclonal antibody L243 (anti HLA Class II-DR) recognizes a monomorphic HLA Class II-DR-α epitope (ATCC M355). Monoclonal antibody CL203.4 [40], which recognizes ICAM-I, was kindly provided by Dr. S. Ferrone, New York Medical College, NY. […]
# T47D cells treated with the various compounds were analyzed by flow cytometry using appropriate monoclonal antibody concentrations as described previously. […] Cells were then washed 3× with PBS and analyzed on a FACStar (Beckon Dickinson, Mountain View, Calif.) or a Coulter Epics IV FACS (Coulter, Hialeah, Fla.). Results are expressed as mean fluorescence intensity (MFI) units which were determined as described previously. MFI=(mean channel fluorescence in fluorescence positive antibody-binding cells×% of fluorescence positive antibody-binding cells)−(mean channel fluorescence in unstained cells×% of fluorescence positive cells in the unstained population). […]
# [1] = test system: HLA Class II-DRβ antigen mRNA; experiment: Northern blotting, steady-state HLA Class II-DRβ mRNA in T47D cells; conditions: 72 hr, 500 units/ml IFN-α or IFN-β, 50 units/ml IFN-γ, 0.1 μg/ml TPA, MEZ or ADMB, densitometry
# Method: (§1) FIG. 3: Effect of interferon, ADMB, TPA and MEZ, alone and in combination with H-7, on steady-state mRNA levels of HLA Class I antigens, HLA Class II-DRβ antigen, c-erbB-2, ICAM-1 and GAPDH in T47D human breast carcinoma cells. T47D cells were grown for 72 hr in the absence (control) or presence of 500 units/ml of IFN-α or IFN-β, 50 units/ml of IFN-γ, 0.1 μg/ml of TPA, MEZ or ADMB. Cultures were also grown in the presence of 0.1 μg/ml of H-7 for 72 hr with and without the additional compounds indicated above. […]
# (§2) Steady-state levels of HLA Class I, HLA Class II-DRβ, c-erbB-2 and ICAM-I mRNA in control and treated T47D cells were determined by Northern blotting analysis of total cytoplasmic RNA probed with appropriate ^32P-labeled gene probes as previously described. […] Radioautograms were analyzed by densitometer to determine fold-change in mRNA expression as a result of treatment with the different antigenic modulating agents, with or without cocultivation with H-7.
# HLA Class I = experiment: Northern blotting, steady-state HLA Class I mRNA in T47D cells; conditions: 72 hr, 500 units/ml IFN-α or IFN-β, 50 units/ml IFN-γ, 0.1 μg/ml TPA or MEZ, densitometry
# Method: as §1, §2
substance,measurement,setting,value
IFN-α: recombinant human leukocyte interferon produced in Escherichia coli,fold increase in HLA Class II expression,"HLA Class II antigens; 500 units/ml IFN-α, IFN-β or IFN-γ as in Table 3",4 fold
same,HLA Class II expression (MFI),"HLA Class II antigens; 500 units/ml of IFN-α, experiment of Table 3, control MFI 2,814","11,660 MFI"
same,increase in HLA Class II-DR antigen mRNA levels,[1],1.1 fold
same,increase in HLA class I antigen mRNA levels,HLA Class I,1.9 fold
